# Measured values taken from ChEMBL document CHEMBL3351721, “Cyclic adenosine 5'-diphosphate ribose analogs without a "southern" ribose inhibit ADP-ribosyl cyclase-hydrolase CD38” (J Med Chem, 2014).
# The chains behind the UniProt entries cited, without tags or fusion partners.
# UniProt P28907, whole entry: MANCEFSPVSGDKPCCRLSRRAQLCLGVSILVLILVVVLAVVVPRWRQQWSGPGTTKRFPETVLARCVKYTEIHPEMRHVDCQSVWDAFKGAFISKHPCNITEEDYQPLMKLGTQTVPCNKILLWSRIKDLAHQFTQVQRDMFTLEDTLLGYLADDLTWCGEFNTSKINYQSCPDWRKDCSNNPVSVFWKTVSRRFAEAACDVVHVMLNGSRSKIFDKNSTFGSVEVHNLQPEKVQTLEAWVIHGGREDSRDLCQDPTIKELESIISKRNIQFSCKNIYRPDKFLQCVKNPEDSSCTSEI
# Target: ADP-ribosyl cyclase/cyclic ADP-ribose hydrolase 1 (Homo sapiens, UniProt P28907)
# Assay: Inhibition of human CD38 catalytic domain assessed as reduction in cADPR hydrolysis incubated for 10 mins by fluorimetric cycling assay
# Method in brief: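 Analog (0–1 mM) incubated with 1 μM cADPR and 1 μg/mL human CD38 catalytic domain, 10 min, 20–24 °C, 25 mM sodium acetate pH 4.5. Stopped with 150 mM HCl, protein filtered off, neutralised with Tris base, diluted 20-fold. Remaining cADPR quantified by fluorimetric cycling assay; IC50 from dose–response.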
structure (smiles),measurement,value
O=c1c2nc(Br)n3c2ncn1[C@@H]1O[C@H](COP(=O)(O)OP(=O)(O)OC[C@H]2O[C@@H]3[C@H](O)[C@@H]2O)[C@@H](O)[C@H]1O,IC50,158 µM
